Each structure is given as a SMILES string. The list shows a part of the results, in another mix than the full data. Some tests of the compounds listed are not included; inactive here does not mean inactive elsewhere. Activity calls are given as the source filed them.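 Rule for the calls: active = activation above the mean of all tested compounds plus 3 SD (cut at about 9.5% in these data); inactive = the rest.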

A short description of this assay: TTR transcription activators in neuroblastoma reporter cells, primary screen, cell-based, luminescence, SH-SY5Y, TTR promoter Gaussia luciferase (AID 1117267).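 Note: cells exposed to compounds for one day before reading; 0% = median of all test compound wells on the plate.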 Particulars: at 16.7 µM, hits give high values, 100% = recombinant luciferase protein wells.
On to `CN(C)c1cccc(C(=O)NCC2(N(C)C)CCCCC2)c1`, for which the activation was inactive: 1.42%.

`O=C(OCCN1CCCC1)C(O)(c1ccccc1)c1ccccc1`: the activation is inactive: 0.03%.

With `CC(C)N1C(=O)CC2(CCN(CCOC(=O)C(O)(c3ccccc3)c3ccccc3)CC2)C1=O`, the activation is inactive: -1.43%.
